System: Female medflies
Assay: Delta trap catches in temperature controlled room, released female medflies
Details: as amine in the NATC/amine/NH4Ac/Molasses mixture at 0.5% of each component

OCCN(CCO)CCO
female medfly attraction compared with GF120-5%: comparable to 20% better
